Assay results as given in US20160129030A1, “TREATMENT OF MTOR HYPERACTIVE RELATED DISEASES AND DISORDERS” (priority 2013, published 2016).

System: 621-101 cells
Details: cells lacking TSC2; in the absence of rapamycin
Protocol: Candidate compounds were screened for cytotoxic or anti-proliferative activity in cells lacking TSC2.
The screen is being performed in 621-101 cells (which are derived from an angiomyolipoma (AML) of a patient with LAM and have a bi-allelic TSC2 inactivating mutation). The 621-101 cells are plated at 1250 cells/well in 384-well plates and grown overnight. Compound libraries are then added at the ICCB and allowed to incubate for 48-72 h. […] Treatment with staurosporine (1-2 uM) represents a positive control for cell death.
The inventors screened the Known Bioactives Collection at the ICCB which consists of approximately 7,000 compounds.

Structure (SMILES): CN1CCCC1c1cccnc1.O=C(O)C(O)C(O)C(=O)O.O=C(O)C(O)C(O)C(=O)O (stereo not shown) [nicotine ditartrate]
- cytotoxic or antiproliferative activity: cytotoxic or antiproliferative activity in the absence of rapamycin
